{"source": "paper PMC12363342", "about": "“Investigating the N-terminal linker histone H1 subtypes as substrates for JmjC lysine demethylases” (RSC Chemical Biology, 2025)", "target": "T1, KDM4D (Homo sapiens, UniProt Q6B0I6)", "T1 construct": "KDM4AM1-L359,[38]; KDM4DM1-L359,[39]; KDM4EM1-R336,[30]; His6 (N); made in house; host or cells: Escherichia coli", "T1 sequence (Q6B0I6 1-359)": "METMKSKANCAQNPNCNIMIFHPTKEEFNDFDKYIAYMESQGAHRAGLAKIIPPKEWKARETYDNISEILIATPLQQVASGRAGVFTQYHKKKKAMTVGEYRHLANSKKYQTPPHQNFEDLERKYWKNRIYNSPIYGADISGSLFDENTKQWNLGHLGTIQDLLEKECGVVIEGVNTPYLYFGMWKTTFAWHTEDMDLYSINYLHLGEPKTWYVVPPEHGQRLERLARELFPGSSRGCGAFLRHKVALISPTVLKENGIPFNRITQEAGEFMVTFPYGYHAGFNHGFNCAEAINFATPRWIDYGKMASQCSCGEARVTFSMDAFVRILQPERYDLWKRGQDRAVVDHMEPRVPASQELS", "assay": "LC-MS demethylation activity assay, KDM4D", "assay_type": "biochemical", "details": "room temperature", "procedure": "The substrate specificity of JmjC KDMs for H1 was examined using liquid chromatography coupled to mass spectrometry (LC-MS) assays. The H1 peptides (10 μM) were incubated with the recombinant KDM (2 μM) in HEPES buffer at pH 7.5 at room temperature for 2 h, in the presence of ferrous(II) ammonium sulfate (FAS, 10 μM), sodium ascorbate (LAA, 100 μM) and 2OG (20 μM), and then quenched with formic acid. N^ε-Methylated H3K9 and H3K36 peptides were used as positive controls (Fig. 3–5 and Fig. S2–S6).[26]\nThe catalytic domains of the JmjC KDMs used were recombinantly produced as reported in either Escherichia coli (KDM4AM1-L359,[38] KDM4DM1-L359,[39] KDM4EM1-R336,[30] KDM6BD1141–E1590[40] and KDM3CL2157-L2500) or Sf9 cells (KDM3AT515–S1317, KDM3B882–1761, and KDM5DM1-D775) as N-terminally His6-tagged proteins. […] To produce proteins, DNA sequences encoding for KDM3A, KDM3B and KDM5D were inserted into the pFB-LIC vector, containing a TEV-protease cleavable N-terminal 6x-histidine tag via ligation independent cloning (LIC). The resultant plasmids were transformed into baculovirus and Sf9 cells ([…]) which were infected with the virus stock. The cells were grown at 27 °C and 90 rpm for 70 h. Cells were then harvested and suspended in 100 mL of lysis buffer (50 mM HEPES-NaOH, pH 7.4, 500 mM NaCl, 20 mM imidazole, 0.5 mM Tris (2-carboxyethyl)phosphine (TCEP), 5% (v/v) glycerol). […] The supernatant was loaded onto a Ni-NTA gravity column, washed with 10 column volume of lysis buffer and eluted using the elution buffer (50 mM HEPES-NaOH, pH 7.4, 500 mM NaCl, 300 mM imidazole, 0.5 mM TCEP, 5% (v/v) glycerol). The eluted protein was further purified using S200 gel filtration column chromatography (50 mM HEPES-NaOH, pH 7.4, 150 mM NaCl, 0.5 mM TCEP and 5% glycerol). Protein purity was analysed by SDS-PAGE and further confirmed by mass spectrometry. Selected fractions were pooled, concentrated and stored at −80 °C.\nAll reagents were purchased from Sigma Aldrich and were of the highest grade available. Ferrous(II) ammonium sulfate (FAS) solutions were prepared freshly by dissolving FAS to 400 mM in 20 mM HCl with subsequent dilution to 1 mM using deionized water. Fresh 2OG (10 mM) and LAA (50 mM) solutions were prepared by dissolving the solids in deionised water. All enzyme reactions were performed in 384-well plates (Greiner Bio-One) with a final reaction volume of 50 μL. Substrate mixtures contained 50 mM HEPES pH 7.5, LAA (100 μM), FAS (10 μM), 2OG (20 μM) and an H1 isoform peptide (10 μM). Reactions were initiated by the addition of enzyme to a final concentration of 2.0 μM. After 2 h, the reactions were stopped by the addition of 5 μL of 10% (v/v) LC-MS grade formic acid (Fisher Scientific) to a final concentration of 1% (v/v). Product analyses were performed by liquid chromatography-mass spectrometry (LC-MS) using an Agilent 1290 infinity II LC system equipped with an Agilent 1290 multisampler and an Agilent 1290 high speed pump and connected to an Agilent 6550 accurate mass iFunnel quadrupole time of flight (Q-TOF) mass spectrometer. 1 μL of the reaction mixture was injected onto a 1.8 μm × 2.1 × 50 mm ZORBAX RRHD Eclipse Plus C18 column (Agilent). Solvent A consisted of HPLC grade water containing 0.1% (v/v) formic acid and solvent B consisted of MeCN containing 0.1% (v/v) formic acid. Peptides were separated using a stepwise gradient (0 min – 95% solvent A, 1.0 min – 80% solvent A, 3.0 min – 45% solvent A, 4.0 min – 45% solvent A, 5.0 min – 0% solvent A, 6.0 min – 0% solvent A, 7.0 min – 95% solvent A). This was followed by a 3 min post-run with 95% solvent A to re-equilibrate the column. All flow rates were 0.2 mL min^−1.", "key": {"[1]": {"details": "2 μM KDM4D, 10 μM peptide, standard conditions, 2 h"}}, "data": [{"substance": "ARTKQTARKme3STGGKA [Peptide H3K9me3, histone H3 residues 1-15 peptide with tri-methylated K9; commercial positive control, reference compound]", "values": [{"measurement": "substrate conversion (demethylation) by KDM4D", "setting": "2 μM KDM4D, 10 μM peptide, 10 μM FAS, 100 μM LAA, 20 μM 2OG, HEPES pH 7.5, 2 h", "result": "~53", "unit": "%"}, {"measurement": "di-methylated product formed by KDM4D", "setting": "[1]", "result": "~35", "unit": "%"}, {"measurement": "mono-methylated product formed by KDM4D", "setting": "[1]", "result": "~18", "unit": "%"}, {"measurement": "KDM4D demethylation activity, T", "setting": "2 μM KDM, 10 μM H1/H3 peptide, 10 μM FAS, 100 μM LAA, 20 μM 2OG, 50 mM HEPES pH 7.5, 2 h, T (tri-) initial methylation state", "result": "● [green] (green dots indicate good demethylation (>50% conversion))"}]}]}
